{"source": "paper PMC7218274", "about": "“Application of human lymphoid cells for the evaluation of antivirals against human adenovirus type 19: Zalcitabine has superior activity compared to cidofovir” (Antiviral Chemistry & Chemotherapy, 2020)", "tested_on": "HAdV-19", "assay": "MTT-based antiviral assay, HAdV-19-infected MT-2 cells", "assay_type": "cell-based, Human adenovirus type 19", "method": "MT-2 cells and A549 cells were mixed with HAdV-19, 2× 10^5 cells/mL with 10^4 TCID50/mL and 1× 10^5 cells/mL with 3 × 10^3 TCID50/mL, respectively, in plate wells in the presence or absence of various concentrations of the compounds (MOI: 0.035 for MT-2 cells and 0.021 for A549). The plates were incubated for five days. At the end of the incubation period, CPE was determined using the MTT assay, as described previously.[11],[12] Thus, 25 µl of the MTT solution (7.5 mg/ml) in phosphate-buffered saline (Wako, Japan) was added to each well of the plate. Then, the plate was incubated at 37°C for 2 h. After incubation, 150 µl of medium was removed with care in order not to draw cells. To solubilize the formazan crystals and neutralize the viral infectivity, 100 μl of acidified isopropanol (4 ml concentrated HCl per 1 l of isopropanol) containing 10% (v/v) Triton X-100 was added to each well. Formazan crystals were completely solubilized by pipetting up and down, the absorbance at 560 nm of the wells was read by microplate reader (GloMax, Promega, Japan). […] The cytotoxicity of each compound was measured in parallel using the MTT assay. The 50% cytotoxicity concentration (CC50) was defined as the drug concentration that reduces cell viability by 50%.", "data": [{"smiles": "Cc1cn([C@H]2C[C@H](F)[C@@H](CO)O2)c(=O)[nH]c1=O", "note": "[FdT, 3′-deoxy-3′-fluorothymidine]", "values": [{"measurement": "SI (selectivity index, ratio of CC50 and EC50)", "result": 20}]}]}
